Experimental data reported in US9133224B2, “Macrocyclic kinase inhibitors” (OSI Pharmaceuticals, LLC, priority 2010, dated 2015).
Read-outs that look alike come from different tables or passages of the source.

Sequences of proteins named here, by UniProt entry; tags and fusion partners are left off.
UniProt Q05397, whole entry: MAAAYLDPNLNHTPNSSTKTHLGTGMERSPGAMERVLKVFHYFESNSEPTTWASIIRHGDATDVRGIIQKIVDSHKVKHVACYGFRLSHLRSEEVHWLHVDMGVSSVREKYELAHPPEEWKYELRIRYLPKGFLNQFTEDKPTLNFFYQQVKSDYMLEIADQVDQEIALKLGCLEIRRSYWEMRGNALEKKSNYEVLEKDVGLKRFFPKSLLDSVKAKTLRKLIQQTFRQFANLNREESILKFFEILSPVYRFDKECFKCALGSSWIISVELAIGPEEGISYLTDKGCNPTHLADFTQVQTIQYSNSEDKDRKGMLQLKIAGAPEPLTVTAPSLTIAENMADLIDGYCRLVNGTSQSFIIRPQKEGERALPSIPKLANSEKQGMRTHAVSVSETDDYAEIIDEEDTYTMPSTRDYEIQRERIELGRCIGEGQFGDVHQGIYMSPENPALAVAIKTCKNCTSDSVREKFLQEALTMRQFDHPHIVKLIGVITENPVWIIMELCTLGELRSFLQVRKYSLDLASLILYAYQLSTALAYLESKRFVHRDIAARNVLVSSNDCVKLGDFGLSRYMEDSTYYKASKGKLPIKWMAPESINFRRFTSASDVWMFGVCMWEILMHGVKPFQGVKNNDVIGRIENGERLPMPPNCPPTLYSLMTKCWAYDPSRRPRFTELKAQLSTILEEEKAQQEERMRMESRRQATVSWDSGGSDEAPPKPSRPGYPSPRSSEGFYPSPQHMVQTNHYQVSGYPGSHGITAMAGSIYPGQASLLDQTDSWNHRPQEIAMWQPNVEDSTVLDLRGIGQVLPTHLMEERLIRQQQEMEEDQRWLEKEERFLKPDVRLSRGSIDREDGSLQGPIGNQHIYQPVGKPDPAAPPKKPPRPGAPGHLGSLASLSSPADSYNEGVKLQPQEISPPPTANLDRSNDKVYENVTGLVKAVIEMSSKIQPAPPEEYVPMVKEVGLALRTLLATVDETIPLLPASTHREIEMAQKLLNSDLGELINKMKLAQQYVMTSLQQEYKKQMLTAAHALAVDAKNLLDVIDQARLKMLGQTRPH

Legend:
FAK = FAK (Homo sapiens, UniProt Q05397); assay: Cell-based capture ELISA for inhibition of FAK autophosphorylation [pY397] in U87MG cells
[1] = target: GST-tagged full-length FAK enzyme (PTK2) (Homo sapiens, UniProt Q05397); assay: Biochemical Omnia Assay (FAK); conditions: read-out: FAK Activity Biochemical OMNIA, [ATP] = 50uM, mean IC50

Measured: IC50

CCOP1(=O)Cc2ccc(c(OC)c2)Nc2ncc(C(F)(F)F)c(n2)Nc2ccc(nc2C(=O)NC)-c2cnn(c2)CC(C)(C)CO1 (single isomer, unassigned)
< 400 nM: FAK; read-out: FAK Activity Mechanistic (U87MG) HP, 50% (v/v) human plasma, mean IC50 | FAK; read-out: FAK Activity Mechanistic (U87MG) MP, 50% (v/v) mouse plasma, mean IC50 | FAK; read-out: FAK Activity Mechanistic (U87MG) NP, no plasma present, mean IC50 | [1]
